Legend:
[1] = system: HER2 over-expressing invasive breast cancers; details: in combination with chemotherapy; cited from earlier work
[2] = system: HER2 over-expressing metastatic breast cancer; assay: Time to progression on Trastuzumab-based therapy in patient cohorts; format: in vivo, human
BT-474 cells = assay: Proliferation of BT-474 cells cultured in Trastuzumab; format: cell-based, human; details: for sensitivity to Trastuzumab: FIG. 2a
Protocol: (§1) The human breast cancer cell lines BT-474 and SKBR-3 were purchased from the American Type Culture Collection (ATCC, Manassas) and were cultured in Dulbecco's Modified Eagle Medium (DMEM) supplemented with 8% heat-inactivated fetal calf serum, penicillin and streptomycin. For both the BT-474 and SKBR-3 cell lines, subclones were generated that ectopically express the murine ecotropic receptor. Ecotropic retroviral supernatants were produced by transfection of Phoenix packaging cells. Transfections were performed with the calcium phosphate precipitation technique. Viral supernatants were filtered through a 0.45 μm filter and infections were performed in the presence of 8 μg/ml polybrene (Sigma). Drug selections in BT-474 and SKBR-3 cells were performed with 2 μg/ml puromycin.
BT-474 cells were infected with retroviruses representing the complete NKi RNAi library as described previously (Berns et al. 2004. Nature 428: 431-437). Infected cells were selected with puroraycin (2.0 μg/ml) and plated into two populations at low density. […] During the screen, cells were trypsinized and replated, to remove small cell clumbs. After 4 weeks in culture the treated and untreated populations were collected. Genomic DNA was isolated with the use of DNAzol (Life Technologies). The shRNA inserts were amplified from genomic DNA by PCR using the primers pRS-T7-fw, 5′[…] […]-3′, containing a T7 RNA polymerase promoter sequence, and pRS-8-rev, 5′-[…]-3′. Purified PCR products were used for linear RNA amplification, and purified RNA probes were labeled with cyanine-3 (Cy3) or cyanine-5 (Cy5) fluorescent groups (Kreatech). […] Quantification of the resulting fluorescent images was performed with Imagene 5.6 (BioDiscovery), local background was subtracted, and the data were normalized and 2 log transformed.
The retroviral vector expressing a constitutive active mutant of PIK3CA (110αCaaX) and the knock down vector for PTEN have been described previously (Kortlever et al. 2006. Nature Cell Biol. 8: 877-884). […]
We have previously described the generation of a library of 24,000 shRNA retroviral vectors targeting some 8,000 human genes for suppression by RNA interference as well as a technology to rapidly screen such libraries, named siRNA bar code screening (Brummelkamp et al. 2006, Nat Chem Biol 2; 202-206; Berns et al. 2004. Nature 428: 431-437). In short, this technology-allows one to identify shRNAs that are enriched in a population based on the relative abundance of a ‘bar code” identifier (a unique 19-mer DNA sequence) in the vector, which is measured on a DNA micro-array that carries the 24,000 different bar code sequences. […] We combined the data from five independent Trastuzumab barcode screens and analyzed the relative abundance of the recovered shRNAs.

SK-BR3 cells = assay: Proliferation of SKBR-3 cells cultured in Trastuzumab; format: cell-based, human; details: SK-BR3 cells expressing PIK3CA(wt) or PIK3CA(H1047R), FIG. 2b
Protocol: as §1
The retroviral vector expressing a constitutive active mutant of PIK3CA (110αCaaX) and the knock down vector for PTEN have been described previously (Kortlever et al. 2006. Nature Cell Biol. 8: 877-884). The PIK3CA (wt) and PIK3CA (H1047R) cDNAs were generated with PCR using the caPIK3CA as a template and cloned into the pMXiresGFP retroviral vector. Control infections were performed with a GFP expressing retrovirus or with a hairpin targeting GFP.

Substance: Trastuzumab: monoclonal antibody that targets the Human Epidermal growth factor Receptor 2 (HER2)
- patients with striking initial responses [1]: approximately 60%
- time to progression, range ([2]; MD Anderson cohort): 0.8-44.7 months
- Average time to progression ([2]; MD Anderson cohort (n=21)): 12.6 months
- time to progression, range ([2]; NKI cohort): 0.7-37.5 months
- Average time to progression ([2]; NKI cohort (n=34)): 11.3 months
- HR (hazard ratio) for time to progression ([2]; PIK3CA mut vs PIK3CA wt, multivariate Cox regression): 1.6
- Average time to progression ([2]; all 55 patients, Trastuzumab-based regimen): 11.8 months
- resistance to Trastuzumab (BT-474 cells; BT-474 cells expressing PIK3CA(wt) or PIK3CA(H1047R), data not shown): conferred resistance
- sensitivity to Trastuzumab (BT-474 cells; BT-474 cells expressing constitutively active caPIK3CA (p110αCaaX)): almost completely insensitive
- sensitivity to Trastuzumab (BT-474 cells; BT-474 cells with shRNA knockdown of PTEN): decreases sensitivity
- response of cells to Trastuzumab (BT-474 cells; parental BT-474 cells, FIG. 1a): reduction in proliferation rate
- resistance to Trastuzumab (SK-BR3 cells): conferred resistance

— patent US20100297624A1, “Involvement of Lipid Kinase, and Signal Transduction Pathway Comprising Said Lipid Kinase, in Resistance to HER2-Targeting Therapy” (STICHTING HET NEDERLANDS KANKER INSTITUUT, priority 2007, published 2010)
